# Assay results as given in patent US7261867B1 (Eastman Kodak Company, priority 2006, dated 2007).
# Conditions: about 170° C. melt
substance,measurement,value
silver laurylsulphate,discoloration in polyolefin melt,extremely discolored
